Read-outs that look alike come from different tables or passages of the source.
Key:
[1] = molecular target: GSK3α (GST-full length GSK3α) (Homo sapiens (Human), UniProt P49840); assay: GSK3α TR-FRET kinase assay; assay type: biochemical
[2] = molecular target: GSK3b (GST-full length GSK3b) (Homo sapiens (Human), UniProt P49841); assay: GSK3b TR-FRET kinase assay; assay type: biochemical
[3] = read-out: GSK3-A TR-FRET BIOCHEMICAL (TR-FRET), IC50, 1 nM GSK3α, 4 μM ATP, 30 minute preincubation (Table 16)
[4] = read-out: GSK3-B TR-FRET BIOCHEMICAL (TR-FRET), IC50, 1 nM GSK3b, 2 μM ATP, 30 minute preincubation (Table 16)
[5] = read-out: GSK3-A TR-FRET BIOCHEMICAL (TR-FRET), GMean, IC50, 1 nM GSK3α, 4 μM ATP, 30 minute preincubation, geometric mean
[6] = read-out: GSK3-B TR-FRET BIOCHEMICAL (TR-FRET), GMean, IC50, 1 nM GSK3b, 2 μM ATP, 30 minute preincubation, geometric mean
[7] = read-out: GSK3-A TR-FRET BIOCHEMICAL (TR-FRET);, 1 nM GSK3α, 4 μM ATP, 30 minute preincubation, Table 16
[8] = read-out: GSK3-B TR-FRET BIOCHEMICAL (TR-FRET);, 1 nM GSK3b, 2 μM ATP, 30 minute preincubation, Table 16
[9] = read-out: GSK3-A TR-FRET BIOCHEMICAL (TR-FRET), IC50, 1 nM GSK3α, 4 μM ATP, 30 minute preincubation
[10] = read-out: GSK3-B TR-FRET BIOCHEMICAL (TR-FRET), IC50, 1 nM GSK3b, 2 μM ATP, 30 minute preincubation
[11] = read-out: GSK3-A (TR-FRET 1 mM ATP), GMean, IC50, 1 mM ATP, geometric mean
[12] = read-out: GSK3-B (TR-FRET 1 mM ATP), GMean, IC50, 1 mM ATP, geometric mean

Chains of the proteins cited; added tags and fusions are not shown.
UniProt P49840, whole entry: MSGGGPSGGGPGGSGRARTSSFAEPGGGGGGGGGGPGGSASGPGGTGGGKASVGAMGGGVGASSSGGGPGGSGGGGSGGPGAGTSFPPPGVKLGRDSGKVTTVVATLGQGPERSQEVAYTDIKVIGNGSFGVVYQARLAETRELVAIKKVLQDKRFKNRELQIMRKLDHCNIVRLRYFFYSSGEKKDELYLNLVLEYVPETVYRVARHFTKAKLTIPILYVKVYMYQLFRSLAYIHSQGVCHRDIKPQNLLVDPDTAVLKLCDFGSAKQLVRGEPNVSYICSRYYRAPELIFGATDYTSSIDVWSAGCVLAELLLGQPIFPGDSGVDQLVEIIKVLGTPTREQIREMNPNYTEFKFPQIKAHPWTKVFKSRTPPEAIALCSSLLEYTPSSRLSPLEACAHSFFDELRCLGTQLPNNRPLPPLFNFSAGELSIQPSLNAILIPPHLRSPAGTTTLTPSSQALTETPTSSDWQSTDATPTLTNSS
UniProt P49841, whole entry: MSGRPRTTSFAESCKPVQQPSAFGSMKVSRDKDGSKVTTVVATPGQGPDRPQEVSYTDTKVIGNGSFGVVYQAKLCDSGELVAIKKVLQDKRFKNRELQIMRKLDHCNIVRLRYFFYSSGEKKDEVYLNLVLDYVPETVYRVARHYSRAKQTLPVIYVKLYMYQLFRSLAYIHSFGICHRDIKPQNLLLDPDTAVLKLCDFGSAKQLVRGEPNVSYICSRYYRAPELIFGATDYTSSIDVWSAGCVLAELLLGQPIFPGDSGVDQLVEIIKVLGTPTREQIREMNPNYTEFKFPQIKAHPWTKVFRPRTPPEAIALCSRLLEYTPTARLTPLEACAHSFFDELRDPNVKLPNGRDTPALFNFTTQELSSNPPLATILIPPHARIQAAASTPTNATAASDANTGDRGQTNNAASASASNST

Row | IC50 [1, 3] [µM] | IC50 [2, 4] [µM] | IC50 [1, 5] [µM] | IC50 [2, 6] [µM] | Structure (SMILES) | other results
1 | < 0.1 | 0.1 to 1 |  |  | CCC1(c2cccc(N3CC4CCC3C4)c2)C2=C(CC(C)(C)CC2=O)Nc2n[nH]cc21 (stereo not drawn) | 
2 |  |  | 0.1 to 1 | 0.1 to 1 | CC1(C)CC(=O)C2=C(C1)Nc1n[nH]c(CCC(F)(F)F)c1C2(C)c1ccccc1 (stereo not drawn) [Compound 856948] | 
3 | 1 to 5 | > 5 |  |  | CC[C@@]1(c2cccc(-c3ccnc(C)c3)c2)C2=C(CC3(CCC3)NC2=O)Nc2n[nH]cc21 | 
4 | < 0.1 | 0.1 to 1 |  |  | CCC1(c2cccc(-c3cnn(C4CC4)c3)c2)C2=C(CC(C)(C)CC2=O)Nc2n[nH]c(C)c21 (stereo not drawn) | 
5 |  |  | 0.1 to 1 | < 0.1 | CC(C)(C)Cc1[nH]nc2c1C1(CCc3ccc(F)cc31)C1=C(CC(C)(C)CC1=O)N2 (stereo not drawn) | 
6 |  |  | < 0.1 | 0.1 to 1 | CCC1(c2cccc(-c3ccnc(C)c3OC)c2)C2=C(CC(C)(C)NC2=O)Nc2n[nH]cc21 (stereo not drawn) | 
7 |  |  | < 0.1 | < 0.1 | CC[C@@]1(c2cccc(-c3c(C)nn(C)c3C)c2)C2=C(CC(C)(C)NC2=O)Nc2n[nH]c(C(F)(F)F)c21 | IC50 [1, 11]: < 0.1 µM; IC50 [2, 12]: < 0.1 µM
8 | 1 to 5 | > 5 |  |  | CC[C@]1(c2cccc(-c3cc(C)nnc3C)c2)C2=C(CC(C)(C)NC2=O)Nc2n[nH]c(C)c21 | 
9 | < 0.1 | < 0.1 |  |  | CC[C@]1(c2cccc(N3CCOCC3)c2)C2=C(CC(C)(C)CC2=O)Nc2n[nH]c(C)c21 | 
10 |  |  | 0.1 to 1 | 1 to 5 | CC[C@@]1(c2cccc(-c3ccnc(C)c3F)c2)C2=C(CC(C)(C)NC2=O)Nc2n[nH]cc21 | 

More lines, now with the values behind:

Row | Structure (SMILES) | IC50 [1, 3] [µM] | IC50 [2, 4] [µM] | IC50 [1, 5] [µM] | IC50 [2, 6] [µM] | other results
11 | CC[C@@]1(c2cccc(N3CCOc4ccccc43)c2)C2=C(CC(C)(C)CC2=O)Nc2n[nH]cc21 | > 5 | > 5 |  |  | 
12 | CC[C@]1(c2cccc(-c3ccnc4c3cnn4C)c2)C2=C(CC(C)(C)NC2=O)Nc2n[nH]cc21 | < 0.1 | 0.1 to 1 |  |  | 
13 | CCC1(c2cccc(-c3cnn(C)n3)c2)C2=C(CC(C)(C)CC2=O)Nc2n[nH]cc21 (stereo not drawn) |  |  |  |  | IC50 [1, 7]: < 0.1 µM; IC50 [2, 8]: 1 to 5 µM
14 | CC[C@@]1(c2cccc(-c3ccnc(C)c3)c2)C2=C(C[C@@H](C)NC2=O)Nc2n[nH]cc21 |  |  |  |  | IC50 [1, 9]: < 0.1 µM; IC50 [2, 10]: 1 to 5 µM
15 | CC[C@@]1(c2cccc(-c3c(Cl)cncc3Cl)c2)C2=C(CC(C)(C)NC2=O)Nc2n[nH]cc21 |  |  | 1 to 5 | > 5 | 
16 | CC[C@]1(c2cccc(C(F)(F)F)c2)C2=C(CC3(CCC3)NC2=O)Nc2n[nH]cc21 |  |  |  |  | IC50 [1, 9]: 0.1 to 1 µM; IC50 [2, 10]: > 5 µM
17 | CC[C@]1(c2cccc(-c3cn(C)nc3C)c2)C2=C(CC(C)(C)NC2=O)Nc2n[nH]c(C)c21 |  |  |  |  | IC50 [1, 9]: 0.1 to 1 µM; IC50 [2, 10]: 1 to 5 µM
18 | CCC1(c2cccc(NC(C)=O)c2)C2=C(CC(C)(C)CC2=O)Nc2n[nH]cc21 (stereo not drawn) |  |  | < 0.1 | 0.1 to 1 | 
19 | CC[C@@]1(c2cccc(-c3ccncc3)c2)C2=C(C[C@H](C)CC2=O)Nc2n[nH]cc21 |  |  | < 0.1 | < 0.1 | 
20 | CC[C@@]1(c2cccc(C(F)(F)F)c2)C2=C(C[C@@H](c3ccccc3)NC2=O)Nc2n[nH]cc21 |  |  |  |  | IC50 [1, 9]: < 0.1 µM; IC50 [2, 10]: 0.1 to 1 µM
21 | CCC1(c2cccc(-c3cnn4c3CCCC4)c2)C2=C(CC(C)(C)NC2=O)Nc2n[nH]c(C)c21 (stereo not drawn) |  |  |  |  | IC50 [1, 9]: < 0.1 µM; IC50 [2, 10]: 0.1 to 1 µM
22 | CC[C@]1(c2cccc(-c3ccnc(C)c3)c2)C2=C(C[C@@H](C)NC2=O)Nc2n[nH]cc21 |  |  |  |  | IC50 [1, 11]: 0.1 to 1 µM; IC50 [1, 9]: < 0.1 µM; IC50 [2, 12]: > 5 µM; IC50 [2, 10]: 0.1 to 1 µM
23 | CCC1(c2cccc(N(C)c3cccnc3C)c2)C2=C(CC(C)(C)CC2=O)Nc2n[nH]cc21 (stereo not drawn) | 0.1 to 1 | 1 to 5 |  |  | 
24 | CCC1(c2cccc(C(F)(F)F)c2)C2=C(CCN(c3cscn3)C2=O)Nc2n[nH]cc21 (stereo not drawn) | < 0.1 | 0.1 to 1 |  |  | 
25 | CC[C@@]1(c2cc(-c3ccnc(C)c3)ccc2F)C2=C(CC(C)(C)CC2=O)Nc2n[nH]cc21 | < 0.1 | 0.1 to 1 |  |  | 
26 | CC[C@]1(c2cccc(Cl)c2)C2=C(CC(C)(C)CC2=O)Nc2n[nH]c(C(F)(F)F)c21 |  |  | < 0.1 | < 0.1 | IC50 [1, 11]: < 0.1 µM; IC50 [2, 12]: 0.1 to 1 µM
27 | CC[C@]1(c2cccc(-c3cnnc(C)c3)c2)C2=C(CC(C)(C)NC2=O)Nc2n[nH]cc21 |  |  |  |  | IC50 [1, 11]: 0.1 to 1 µM; IC50 [1, 9]: < 0.1 µM; IC50 [2, 12]: > 5 µM; IC50 [2, 10]: 0.1 to 1 µM
28 | CC[C@]1(c2cccc(-c3ccnc(C)c3)c2)C2=C(CC(C)(C)[C@@H](F)C2=O)Nc2n[nH]cc21 |  |  |  |  | IC50 [1, 11]: 0.1 to 1 µM; IC50 [1, 7]: < 0.1 µM; IC50 [2, 12]: > 5 µM; IC50 [2, 8]: 0.1 to 1 µM

From patent publication US20250313563A1, “GLYCOGEN SYNTHASE KINASE 3 INHIBITORS AND USES THEREOF” (The Broad Institute, Inc., priority 2022, published 2025)
